The results in this text go back to paper PMC6586500 (SLAS discovery : advancing life sciences R & D, 2019).

For the assay, the target named is T1, CBX4 (Homo sapiens, UniProt O00257).
T1 sequence (O00257 8-65): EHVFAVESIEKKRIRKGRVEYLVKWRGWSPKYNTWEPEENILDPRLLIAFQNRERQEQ
The experiment in a line: TR-FRET competition assay, CBX4 chromodomain with UNC4195 tracer. In kind it is binding. (In TR-FRET formats the signal depends on donor and acceptor labels being close together.)

Turning to `CCN(CC)CCCC[C@H](NC(=O)[C@H](CC(C)C)NC(=O)[C@H](C)NC(=O)[C@H](Cc1ccccc1)NC(=O)c1ccc(C(C)(C)C)cc1)C(=O)N[C@@H](CO)C(=O)OC` [UNC3866], the IC50 (in general, the concentration at which inhibition is half-maximal) was found to be 60 nM.
